Source: the Kinase Knowledgebase extract (Sharma et al. 2016)

Chains of the proteins cited; added tags and fusions are not shown.
UniProt P00533, whole entry, looked up: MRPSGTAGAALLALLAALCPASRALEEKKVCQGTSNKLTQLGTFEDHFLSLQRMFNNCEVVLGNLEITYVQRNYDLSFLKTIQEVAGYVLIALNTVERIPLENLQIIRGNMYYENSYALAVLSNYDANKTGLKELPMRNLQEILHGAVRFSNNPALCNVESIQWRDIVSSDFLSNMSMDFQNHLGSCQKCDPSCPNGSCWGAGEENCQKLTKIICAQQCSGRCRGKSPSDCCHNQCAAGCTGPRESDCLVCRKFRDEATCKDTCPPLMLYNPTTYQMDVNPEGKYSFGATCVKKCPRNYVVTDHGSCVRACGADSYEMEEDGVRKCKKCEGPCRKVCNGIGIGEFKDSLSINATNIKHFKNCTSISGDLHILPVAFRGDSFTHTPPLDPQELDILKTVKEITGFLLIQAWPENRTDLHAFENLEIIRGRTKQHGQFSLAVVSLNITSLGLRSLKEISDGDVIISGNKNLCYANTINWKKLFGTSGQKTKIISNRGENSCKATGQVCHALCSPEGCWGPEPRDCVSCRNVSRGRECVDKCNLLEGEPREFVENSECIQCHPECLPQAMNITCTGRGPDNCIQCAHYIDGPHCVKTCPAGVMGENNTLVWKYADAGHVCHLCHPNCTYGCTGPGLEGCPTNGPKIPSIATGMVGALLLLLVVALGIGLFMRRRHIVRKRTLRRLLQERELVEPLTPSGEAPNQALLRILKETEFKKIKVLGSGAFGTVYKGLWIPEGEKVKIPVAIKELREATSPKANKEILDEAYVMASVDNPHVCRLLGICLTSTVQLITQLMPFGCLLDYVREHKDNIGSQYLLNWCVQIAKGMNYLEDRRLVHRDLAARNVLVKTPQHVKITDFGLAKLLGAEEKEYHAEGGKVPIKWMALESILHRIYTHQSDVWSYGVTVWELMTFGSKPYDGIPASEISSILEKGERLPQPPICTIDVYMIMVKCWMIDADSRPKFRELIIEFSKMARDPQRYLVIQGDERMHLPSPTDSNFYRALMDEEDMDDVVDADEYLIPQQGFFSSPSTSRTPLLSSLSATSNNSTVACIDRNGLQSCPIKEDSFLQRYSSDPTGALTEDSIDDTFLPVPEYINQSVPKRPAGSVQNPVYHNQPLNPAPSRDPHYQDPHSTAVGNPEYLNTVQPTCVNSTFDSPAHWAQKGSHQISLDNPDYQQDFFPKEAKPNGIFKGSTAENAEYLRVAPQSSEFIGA

Target: EGFR (human) (UniProt P00533)
Settings: hn5

- IC50: < 5 µM
SMILES: CS(=O)(=O)CCNCCCCOc1ccc2ncnc(Nc3ccc4c(cnn4Cc4cccc(F)c4)c3)c2c1
